Consider one molecule from patent US10736974B2, “Scaffolds and multifunctional intermediates for imaging PSMA and cancer therapy” (THE JOHNS HOPKINS UNIVERSITY, priority 2014, dated 2020).

By UniProt entry, the sequences of proteins in these tests, tags left out.
UniProt Q04609, whole entry: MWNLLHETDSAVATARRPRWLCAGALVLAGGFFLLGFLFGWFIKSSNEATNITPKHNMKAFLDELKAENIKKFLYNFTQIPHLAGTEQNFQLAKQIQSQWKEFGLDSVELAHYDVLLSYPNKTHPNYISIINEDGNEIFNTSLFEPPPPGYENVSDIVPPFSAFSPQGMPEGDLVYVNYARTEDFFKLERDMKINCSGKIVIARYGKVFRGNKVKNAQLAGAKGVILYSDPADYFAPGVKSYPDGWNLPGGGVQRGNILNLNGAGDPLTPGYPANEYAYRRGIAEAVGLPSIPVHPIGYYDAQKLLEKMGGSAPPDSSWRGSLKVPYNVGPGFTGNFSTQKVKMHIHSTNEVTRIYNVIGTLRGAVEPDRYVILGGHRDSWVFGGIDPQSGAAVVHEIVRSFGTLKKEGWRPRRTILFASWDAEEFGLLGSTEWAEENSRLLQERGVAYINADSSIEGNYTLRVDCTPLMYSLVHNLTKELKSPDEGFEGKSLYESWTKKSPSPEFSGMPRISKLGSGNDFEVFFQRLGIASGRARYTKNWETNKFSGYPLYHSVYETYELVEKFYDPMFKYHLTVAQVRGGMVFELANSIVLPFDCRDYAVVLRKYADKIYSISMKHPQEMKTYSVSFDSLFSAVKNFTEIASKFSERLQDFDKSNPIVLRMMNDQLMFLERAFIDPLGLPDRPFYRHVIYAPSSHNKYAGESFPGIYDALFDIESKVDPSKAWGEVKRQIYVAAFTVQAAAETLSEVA

One may read the Ki as the dissociation constant of the complex between target and ligand, obtained from inhibition or displacement. Lower therefore signals higher affinity.

In the experiment the target is PSMA (Homo sapiens (Human), UniProt Q04609). Kind of experiment: NAALADase assay: PSMA inhibitory activity, fluorescence-based Amplex Red Glutamic Acid assay, lysates of LNCaP cell extracts. It is filed as biochemical. The note with it: Table 4. The method, then: Briefly, lysates of LNCaP cell extracts (25 μL) were incubated with the inhibitor (12.5 μL) in the presence of 4 μM N-acetylaspartylglutamate (NAAG) (12.5 μL) for 120 min. The amount of the glutamate released by NAAG hydrolysis was measured by incubating with a working solution (50 μL) of the Amplex Red Glutamic Acid Kit for 60 min. […] Assays were performed in triplicate. Data analysis was performed using GraphPad Prism version 4.00 for Windows (GraphPad Software, San Diego, Calif.).

Each structure is given as a SMILES string.

Take `O=C(O)CC[C@H](NC(=O)N[C@@H](CSCc1ccc(F)cc1)C(=O)O)C(=O)O` [DCFBC, N-[N-[(S)-1,3-Dicarboxypropyl]carbamoyl]-4-fluorobenzyl-1-cysteine, reference compound]: affinity was put at a Ki of 14 nM.
